The results in this text go back to US20120135923A1, “Use of Melanocortins to Treat Dyslipidemia” (IPSEN PHARMA, S.A.S., priority 2009, published 2012).

Chains of the proteins cited; added tags and fusions are not shown. Lines headed by an entry give the natural chain unless they say otherwise; changes in a name come on top.
UniProt P32245, whole entry: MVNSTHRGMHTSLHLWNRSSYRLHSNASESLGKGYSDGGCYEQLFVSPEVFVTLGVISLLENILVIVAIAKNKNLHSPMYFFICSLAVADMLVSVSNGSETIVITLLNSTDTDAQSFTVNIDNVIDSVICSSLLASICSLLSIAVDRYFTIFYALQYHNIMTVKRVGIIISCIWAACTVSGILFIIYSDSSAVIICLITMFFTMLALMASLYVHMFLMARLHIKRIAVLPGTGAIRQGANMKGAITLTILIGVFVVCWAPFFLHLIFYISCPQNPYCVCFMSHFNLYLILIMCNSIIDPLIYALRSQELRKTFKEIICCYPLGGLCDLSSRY
UniProt P41968: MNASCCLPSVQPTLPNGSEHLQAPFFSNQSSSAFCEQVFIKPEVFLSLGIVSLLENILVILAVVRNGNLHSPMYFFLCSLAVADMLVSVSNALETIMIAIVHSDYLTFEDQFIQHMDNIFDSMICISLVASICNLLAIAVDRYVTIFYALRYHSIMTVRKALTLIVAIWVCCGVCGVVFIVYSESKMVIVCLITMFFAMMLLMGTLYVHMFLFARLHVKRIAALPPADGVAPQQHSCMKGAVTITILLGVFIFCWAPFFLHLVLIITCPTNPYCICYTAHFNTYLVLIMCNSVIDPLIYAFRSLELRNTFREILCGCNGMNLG
UniProt Q01726: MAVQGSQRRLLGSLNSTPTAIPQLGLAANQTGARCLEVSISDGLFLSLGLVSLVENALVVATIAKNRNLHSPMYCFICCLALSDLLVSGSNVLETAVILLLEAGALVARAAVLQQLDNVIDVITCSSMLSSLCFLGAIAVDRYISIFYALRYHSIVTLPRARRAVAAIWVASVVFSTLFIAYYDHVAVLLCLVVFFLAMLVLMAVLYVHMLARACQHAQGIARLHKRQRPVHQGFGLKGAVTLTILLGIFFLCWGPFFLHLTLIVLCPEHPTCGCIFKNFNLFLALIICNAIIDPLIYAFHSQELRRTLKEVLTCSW
UniProt P33032: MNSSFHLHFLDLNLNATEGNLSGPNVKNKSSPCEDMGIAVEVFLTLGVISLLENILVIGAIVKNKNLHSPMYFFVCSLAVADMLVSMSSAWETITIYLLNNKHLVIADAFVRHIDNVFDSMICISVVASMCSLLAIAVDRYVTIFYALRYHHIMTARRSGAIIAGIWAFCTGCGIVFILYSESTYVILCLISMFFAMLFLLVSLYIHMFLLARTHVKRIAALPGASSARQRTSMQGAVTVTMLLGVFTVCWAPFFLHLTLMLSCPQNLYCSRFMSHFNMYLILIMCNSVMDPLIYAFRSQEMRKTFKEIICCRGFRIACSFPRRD

Test [1] addresses human melanocortin receptor subtype 4 (hMC4-R) (human) (UniProt P32245). Kind of test: [125I]-NDP-α-MSH competition, membranes.
Test [2] concerns the target human melanocortin receptor subtype 3 (hMC3-R) (human) (UniProt P41968). Kind of test: [125I]-NDP-α-MSH competition, membranes.
The target in test [3] is human melanocortin receptor subtype 1 (hMC1-R) (human) (UniProt Q01726). As to the kind of experiment: [125I]-NDP-α-MSH competition, membranes.
In test [4] the target is human melanocortin receptor subtype 5 (hMC5-R) (human) (UniProt P33032). Kind of test: [125I]-NDP-α-MSH competition, membranes.
A further test deals with hMC4-R (human) (UniProt P32245). As to the kind of experiment: competition with [125I]-NDP-α-MSH, CHO-K1 membranes.

For the substance “c[Hydantoin(C(O)-(Cys-D-Ala))-His-D-Phe-Arg-Trp-Cys]-NH2 (peptide)”, the inhibitory constant (Ki) in test [1] stood at 126 nM; in test [2], 7590 nM; in test [3] it was 230 nM; in test [4], 7020 nM.
In turn, “Ac-Nle-c(Cys-3-Pal-D-Phe-Arg-Trp-Gaba-Cys)-NH2 (peptide)” showed a Ki in the test with hMC4-R (human) of 10.4 nM.
